High-throughput results from PubChem.
Nrf2 block – blocks Nrf2 signaling; A549 ARE-Fluc reporter, luciferase luminescence, 18-24 h; Potency, µM (top dose mostly 46 µM), for the others: at the top dose activity change, negative = inhibition, hits mostly inhibitors; 2.1% of 360,000 active; note: potency is the fitted concentration of half-maximal effect; % is set by controls: 0 for no effect and ±100 for the full control effect; nearly all actives have a fitted effect of over 60% in size
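Quantitative HTS in A549 cells stably bearing an antioxidant response element-firefly luciferase construct. Inhibition of Nrf2-driven transcription was scored by luminescence after 18-24 h of compound exposure at 37 °C.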
ClpP mod – qHTS Assay for Activators of ClpP; ATP-dependent Clp protease proteolytic subunit (Bacillus subtilis (strain 168)), P80244; purified B. subtilis ClpP, FRET peptide cleavage, 20 min; Potency, µM (top dose mostly 57.5 µM), inactives show at the top dose activity change, negative = active; 1.9% of 340,000 active; AID 651965, 2013; active = well fitted falling curve with a large enough effect; inconclusive = small, poorly fitted or top-dose-only effect; inactive = no such curve, though single readings can be large or run the other way; note: potency is the fitted concentration of half-maximal effect; the source files actives as falling curves though it sought activators and does not explain the sign; nearly all actives have a fitted effect of over 65% in size
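Purified B. subtilis ClpP, 10 microg/mL final in Tris/HCl pH8 with KCl, BSA, glycerol and Tween-20, cleaved an Abz/nitrotyrosine-quenched decapeptide. Fluorescence (ex 320, em 430) was read at 0 and 20 min at room temperature. Delta was normalized to 5.8 microM ADEP and DMSO/no-enzyme controls.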
Nrf2 activator – Nrf2 pathway activation; AREc32 ARE-luciferase reporter (MCF7-derived line), luminescence, 24 h; Potency, µM (highest dose often 46.1 µM), without a hit: top-dose activation, usual class: activators; 0.31% of 410,000 active; AID 624171; note: potency is the fitted concentration of half-maximal effect; % of control where 0% means no effect; nearly all actives have a fitted effect of over 65% in size
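AREc32 cells carrying an ARE-driven firefly luciferase, 1000 cells/well in OPTI-MEM with 5% FBS, dosed after overnight attachment and incubated 24 hr at 37 deg C. Steady-Glo luminescence read after 30 min at RT.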
A549 viability – counter-screen for Nrf2 inhibitors: cytotoxicity in A549 cells. A549 ARE-Fluc cells, CellTiter-Fluor viability, 18-24 h. Potency, µM (titrated, usually from 46 µM), for inactives: at the top dose activity change, negative = cytotoxicity, usual class: inhibitors. 0.16% of 390,000 active. AID 504648; note: potency is the fitted concentration of half-maximal effect; % is set by controls: 0 for no effect and ±100 for the full control effect
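A549 ARE_Fluc cells in 5% FBS OPTI-MEM were exposed to compounds in concentration-response for 18-24 h at 37 deg C. Viability was read by CellTiter-Fluor fluorescence (Ex 405/Em 525) after 30 min, before the luciferase read.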
IL-2 act – activates IL-2 in a cell-based reporter assay. IL-2 activation reporter assay, cell-based qHTS; stimulated with anti-CD3/CD4/CD28 beads; in transgenic mouse T cells. 0.065% of 360,000 active. activation, % (series mostly up to about 46 µM). AID 652025; in the data active = activation above about 50%; inconclusive = mostly about 30% to 49%; note: 0% is about no effect
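Readout: EGFP and DsRed signals by fluorescent plate cytometry. Unstimulated transgenic mouse T cells received compound 60 min before antibody-bead stimulation, then incubated 18 h at 37 degrees C.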
miR-21 FLuc – miR-21 reporter, rising signal; HeLa miR-21 FLuc reporter, luciferase, 48 h; Potency, µM (titrated, usually from 38.3 µM), without a hit: top-dose reporter change, positive = more light; AID 2288; 340,000 tested, under 10 active; active = well fitted rising curve with a large enough effect; inconclusive = small, poorly fitted or top-dose-only effect; inactive = no such curve, though single readings can be large or run the other way;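 further: % of control where 0% means no effect; miR-21 action dims this reporter so a rising signal means less miR-21 action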
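HeLa miR-21-FLuc reporter line, endogenous miR-21; 2000 cells/well in DMEM/10% FBS; compound titration up to ~40uM final, 48 h, 37 degree Celsius; luciferase detection reagent, 15 min lysis, CCD luminescence.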
Numbers without * were called inactive; ? = inconclusive; . = no result given; [ ] = another dose, or the depositor's remark. The list is not random: actives were taken first. Their share in the collection is about 3.7%. Unless noted, calls come from the whole dose curve; as a rule, active = well fitted curve in the direction sought with a large enough effect; inconclusive = small, poorly fitted or top-dose-only effect, or another doubt; inactive = no such curve, though single readings can be large; an effect the other way counts as inactive or inconclusive.

Compound	miR-21 FLuc	ClpP mod	IL-2 act	Nrf2 activator	Nrf2 block	A549 viability
O=C(O)C1Cc2[nH]cnc2C(c2cccc([N+](=O)[O-])c2)N1 (centres undefined)	-2%	1%	-4	0%	?	-7%
O=C(O)C1Cc2[nH]cnc2C(c2ccccc2O)N1 (centres undefined)	0%	28µM*	1	1%	3%	6%
COc1ccc(OC)c(CNC(=O)c2ccc(Sc3ccc(C)cc3)c(N)c2)c1	18%	5%	.	0%	.	-5%
COC(=O)c1ccc(Sc2ccc(C)cc2)c(N)c1	-26%	28µM*	-1	3%	.	7%
CCN(CC)c1ncnc2c1[nH]c1ccccc12	12%	-4%	0	6%	?	-3%
CCCOc1ncnc2c1[nH]c1ccccc12	-9%	14µM*	-4	6%	?	-12%
CCCOc1ncnc2c1[nH]c1ccc(OC)cc12	-43%	?	-1	7%	?	16%
CC(C)Oc1ncnc2c1[nH]c1ccccc12	3%	4%	0	8%	8.2µM*	-12%
CN(C)CCCN=c1cc(-c2ccccc2)oc2ccc(Cl)cc12	-55%	-3%	-1	14µM*	5%	11%
CCN1/C(=C/c2cc[n+](CCCS(=O)(=O)[O-])c3ccccc23)Sc2ccccc21	1%	.	226*	0%	1%	-22%
COc1ccc(-n2ncc3c(=O)n(CC(=O)N4c5ccccc5CC4C)cnc32)cc1 (centres undefined)	-3%	-19%	0	0%	8.2µM*	?
CCOc1ccccc1CNS(=O)(=O)c1ccc2[nH]c(=O)ccc2c1	-10%	-6%	.	0%	.	8%
Clc1ccccc1Cn1c(/C=C/c2ccco2)nc2ccccc21	-1%	28µM*	-1	?	1%	7%
CCn1c(CN2CCN(C)CC2)nc2cc(NC(=O)c3ccc([N+](=O)[O-])cc3)ccc21	-9%	-2%	.	-1%	4%	-2%
CCn1c(CN2CCOCC2)nc2cc(NC(=O)c3ccc([N+](=O)[O-])cc3)ccc21	2%	0%	.	-1%	9.2µM*	0%
CC(=O)N1CCN(Cc2nc3cc(NC(=O)COc4cccc(C)c4)ccc3n2C)CC1	11%	.	0	0%	23µM*	-5%
Cn1c(CN2CCCCC2)nc2cc(NC(=O)c3ccc(F)cc3)ccc21	0%	-2%	4	3%	12µM*	-21%
CC(=O)N1CCN(Cc2nc3cc(NC(=O)c4ccc(Cl)cc4)ccc3n2C)CC1	3%	-3%	1	2%	10µM*	-15%[1.84 µM]
Cc1cccc(OCC(=O)Nc2ccc3c(c2)nc(CN2CCCCC2)n3C)c1	7%	-9%	-1	-1%	?	13%
COc1ccc(CCNC(=O)c2nc(-c3ccc(Cl)cc3)n3c2CCCCC3)c(OC)c1	15%	-18%	.	4%	?	-18%
COc1cc(-c2nc(C(N)=O)c3c(n2)n(-c2cccc(C)c2)c(=O)n3C)cc(OC)c1OC	1%	22µM*	.	0%	.	-2%
Cc1ccc(S(=O)(=O)NN2C(=O)c3ccccc3NC2(C)C)cc1	1%	16µM*	2	-1%	-8%	11%
CC1(C)Nc2ccccc2C(=O)N1NS(=O)(=O)c1ccccc1	-14%	-3%	-4	-1%	6%	-2%
COc1ccc(CC(=O)Nc2ccc(-c3nc4ccccc4s3)cc2Cl)cc1OC	-6%	5%	.	-2%	.	-1%

Nrf2 activator, entries above that show a hit.
SMILES,miR-21 FLuc,IL-2 act,Nrf2 activator,Nrf2 block
CN(C)CCCN=c1cc(-c2ccccc2)oc2ccc(Cl)cc12,-55%,-1,14µM*,5%

(continued)
Compound	miR-21 FLuc	ClpP mod	IL-2 act	Nrf2 activator	Nrf2 block	A549 viability
Cc1ccccc1CSc1ncc(Cl)c(C(=O)Nc2nc3ccc(F)cc3s2)n1	0%	-4%	.	0%	21%	1%
N#Cc1c(N)sc2c1CCN(CCc1ccccc1)C2	-3%	22µM*	-2	0%	1%	5%
N#Cc1c(NC(=S)NC(=O)c2ccccc2)sc2c1CCN(CCc1ccccc1)C2	-21%	.	.	.	.	.
Cc1cc(C)n2nc(-c3ccc(Br)cc3)cc2n1	-55%	5%	0	2.2µM*	?	26%
Cc1cc(C)n2nc(-c3ccc(Cl)cc3)cc2n1	-63%	4%	1	14µM*	?	8%
COc1ccc(-c2cc3nc(C)cc(C)n3n2)cc1	-63%	?	1	26%	?	-5%
O=C(Nc1cccc(F)c1)C1CCN(C(=O)c2ccc(Cl)cc2)CC1	-3%	25µM*	-1	-1%	2%	-11%
CN(CC(=O)Nc1cccc(F)c1)C(=O)C1CCN(C(=O)c2ccc(Cl)cc2)CC1	.	-1%	1	3%	-4%	-18%
O=C(Cc1cccc2ccccc12)NCC(=O)N1CCN(Cc2cccc(C(F)(F)F)c2)CC1	.	1%	-1	1%	21µM*	-13%
O=C1CCc2cc(S(=O)(=O)Nc3ccc4ccccc4c3)ccc2N1	.	.	.	.	?	7%
O=C1NC2c3ccccc3CC2O1 (centres undefined)	5%	1%	0	0%	17%	0%
O=C1NC2c3c(Cl)sc(Cl)c3C(=O)C2O1 (centres undefined)	.	-6%	-1	16µM*	8%	3%
O=C1NC2c3c(I)sc(I)c3C(=O)C2O1 (centres undefined)	.	-2%	-1	11µM*	?	-8%
Cc1oc2ncnc(N3CCCCC3)c2c1C(=O)NCC1CCN(Cc2ccccc2F)CC1	-3%	2%	.	0%	?	9%
Brc1ccc(C2C=Cc3ccccc32)cc1 (centres undefined)	.	-1%	.	.	.	.
O=C(NNC(=S)NC1CCCCC1)c1sc2ccccc2c1Cl	-11%	17%	0	0%[9.22 µM]	?	0%

In the list so far, three have an aryl thioether with sulfur outside any ring.
Compound	miR-21 FLuc	ClpP mod	IL-2 act	Nrf2 activator	Nrf2 block	A549 viability
COc1ccc(OC)c(CNC(=O)c2ccc(Sc3ccc(C)cc3)c(N)c2)c1	18%	5%	.	0%	.	-5%
COC(=O)c1ccc(Sc2ccc(C)cc2)c(N)c1	-26%	28µM*	-1	3%	.	7%
Cc1ccccc1CSc1ncc(Cl)c(C(=O)Nc2nc3ccc(F)cc3s2)n1	0%	-4%	.	0%	21%	1%

Compound profiles, as listed above.
CCN1/C(=C/c2cc[n+](CCCS(=O)(=O)[O-])c3ccccc23)Sc2ccccc21 is listed with miR-21 FLuc = 1%; ClpP mod = .; IL-2 act = 226*; Nrf2 activator = 0%; Nrf2 block = 1%; A549 viability = -22%
COc1ccc(-n2ncc3c(=O)n(CC(=O)N4c5ccccc5CC4C)cnc32)cc1 (centres undefined) is listed with miR-21 FLuc = -3%; ClpP mod = -19%; IL-2 act = 0; Nrf2 activator = 0%; Nrf2 block = 8.2µM*; A549 viability = ?

More results.
Compound	miR-21 FLuc	ClpP mod	IL-2 act	Nrf2 activator	Nrf2 block	A549 viability
CC(C)(C)C(=O)NC(=S)NNC(=O)c1sc2ccccc2c1Cl	-14%	167%	0	-1%	5.8µM*	?
COc1ccc(Br)cc1/C=C/C(=O)c1ccc(NC(C)=O)cc1	?	-3%	-2	?	5.2µM*	8.2µM*
COc1ccc(NC(=O)/C=C/c2cc(Br)ccc2OC)cc1	7%	-2%	0	21%	9%	3%
Cc1nc([N+](=O)[O-])c(Br)n1Cc1ccc(Cl)c(Cl)c1	?	0%	-1	-3%	16µM*	?
CCn1c(=NC(=O)CS(=O)(=O)c2ccc(C)cc2)sc2cccc(OC)c21	.	?	-3	0%	23µM*	-23%
COc1cccc2sc(=NC(=O)CCS(=O)(=O)c3ccc(C)cc3)n(C)c12	.	3.2µM*	2	0%	?	-1%
Cc1cccc(-c2cc3nc4c(c(N5CCOCC5)n3n2)CCCC4)c1	-53%	?	-2	1%	?	-8%
